Results taken from paper PMC6359543, “Efficacy of Azatyrosine-Phenylbutyric Hydroxamides, a Histone Deacetylase Inhibitor, on Chemotherapy-Induced Gastrointestinal Mucositis” (International Journal of Molecular Sciences, 2019).

System: male ICR mice
Assay: Micronucleus test
Conditions: Day 1; Cyclophosphamide 200 mg/kg

O=P1(N(CCCl)CCCl)NCCCO1 (stereo not shown) [Cyclophosphamide]
Number of Micronuclei (‰): 4.73±037 ‰
